Consider three compounds from patent US20100280040A1 (KAOHSIUNG MEDICAL UNIVERSITY, priority 2009, published 2010).

This data set can be described thus: Solubility test.

Each structure is given as a SMILES string.

In the case of `Cn1c(=O)c2c(ncn2CCN2CCN(c3ccccc3Cl)CC2)n(C)c1=O` [MSC], the pH by setting is: (dissolved in 1.2 ml Propylene glycol and 0.6 ml 1N HCl) 4.2-4.8; (dissolved in Anhydrous EtOH:PEG 400:1N HCl:H2O = 10:10:3:77 (v/v)) 4.2-4.8. For `Cl.Cn1c(=O)c2c(ncn2CCN2CCN(c3ccccc3Cl)CC2)n(C)c1=O` [Pulmodil, 7-[2-[4-(2-chlorobenzene)piperazinyl]ethyl]-1,3-dimethylxanthine.HCl], for the setting “dissolved in 5% Glucose”, the pH is on record as 5.8-6.4. As for `Cn1c(=O)c2c(ncn2CCN2CCN(c3ccccc3Cl)CC2)n(C)c1=O.O=C(O)CC(O)(CC(=O)O)C(=O)O` [Pulmodil-1, 7-[2-[4-(2-chlorobenzene)piperazinyl]ethyl]-1,3-dimethylxanthine.citric acid], for the setting “dissolved in Anhydrous EtOH:PEG 400:H2O = 5:30:65 (v/v)”, the pH is listed as 4.5-4.8.
